Source: patent publication US20220105081A1 (priority 2020, published 2022)

Columns and labels:
[1] = test system: Fentanyl-induced analgesia in rats; test: Fentanyl-induced analgesia, tail flick
[2] = test system: respiratory depressant effects of Fentanyl in rats; test: Blockade of the respiratory depressant effects of fentanyl
[3] = test system: Fentanyl-induced lateral recumbency in rats

| Compound | blockade of fentanyl-induced analgesia (tail flick reaction time) [1] | time for which Fentanyl induced analgesia was modified ([1]; intraperitoneal 20, 30, or 40 mg/kg) | blockade of fentanyl effect on minute volume [2] | blockade of fentanyl effect on respiratory rate [2] | blockade of fentanyl effect on tidal volume [2] | time that rats were recumbent after fentanyl dosing [3] |
| --- | --- | --- | --- | --- | --- | --- |
| CCC(=O)NC1CC(C)N(CCc2ccccc2)CC1C (stereo not drawn) [VDM-001, N-[2,5-dimethyl-1-(2-phenylethyl)piperidin-4-yl]propanamide] | blocks fentanyl-induced analgesia | up to 30 minutes post dose | full blockade | partial blockade | partial blockade |  |
| C=CCN1CC[C@]23c4c5ccc(O)c4O[C@H]2C(=O)CC[C@@]3(O)[C@H]1C5 [naloxone, 17-allyl-4,5a-epoxy-3,14-dihydroxymorphinan-6-one, reference compound] |  |  |  |  |  | significantly reduce the time that rats were recumbent |
